From US9051265B2, “N-benzylindole modulators of PPARG” (The Scripps Research Institute, priority 2011, dated 2015)

Chains of the proteins cited; added tags and fusions are not shown. Residues count along the entry.
UniProt P37231, 238-503: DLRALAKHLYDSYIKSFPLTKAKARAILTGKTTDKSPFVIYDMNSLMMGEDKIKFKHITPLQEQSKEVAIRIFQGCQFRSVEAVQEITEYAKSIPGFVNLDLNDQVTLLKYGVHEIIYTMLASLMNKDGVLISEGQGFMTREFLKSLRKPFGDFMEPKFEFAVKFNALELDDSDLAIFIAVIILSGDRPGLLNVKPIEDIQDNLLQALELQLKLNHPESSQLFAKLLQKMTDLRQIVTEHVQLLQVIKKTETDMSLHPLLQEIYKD

Target: Gal4-PPARg (human PPAR LBD fused to GAL4 DNA-binding domain) (Homo sapiens (Human), UniProt P37231)
Assay type: cell-based

activation of the UAS-luc reporter: about 100 fold
SMILES: CN(CCOc1ccc(CC2SC(=O)NC2=O)cc1)c1ccccn1 (stereo not shown) [rosiglitazone]
